High-throughput results deposited in PubChem BioAssay by Broad Institute.
In the library only some 1.5% were active in any assay of this set; here they are far more common.
INS-1E GSIS act: primary screen for activators of insulin secretion dependent on glucose, INS-1E cells, GLuc reporter luminescence. INS-1E GLuc reporter insulin secretion, 2-3 h. 370,000 compounds, 0.61% hits. activation, % at 16.6 µM;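 active means lowest replicate activation of at least 40%, so every replicate reaches that level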;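 further: 0% = median of neutral control wells and 100% = median of IBMX positive control wells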
RAD54 branch: inhibitors of human RAD54 branch migration; Q92698; RAD54 Holliday junction branch migration, FAM/BHQ fluorescence; inhibition, % at 10.4 µM; 360,000 compounds, 0.14% hits;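 active means mean normalized replicate activity at least 40 and at least half of replicates scoring 40 or more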;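 further: 0% = median of neutral control wells and 100% = median of positive control wells; inhibitors cause a drop in the FAM fluorescence signal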
Yeast UUG start: modulators of yeast start codon fidelity, primary screen, whole organism, S. cerevisiae, single point, plate reader | AID 602363, 2012 | S. cerevisiae UUG-firefly luciferase reporter, luminescence/redox ratio | activity score, % at 18.7 µM | hit rate 0.13% among 350,000;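 active = replicate mean at a twofold rise or more, about +100% in these data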;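 also: firefly luciferase made from a UUG start codon reports start codon fidelity; reporter light over untreated wells divided by growth signal over untreated wells; some hits fall short of that in this replicate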
RAD52 anneal inh: inhibitors of human RAD52 DNA annealing; P43351; recombinant RAD52 DNA annealing, FRET fluorescence; inhibition, % at 18.7 µM; 360,000 compounds, 0.46% hits; AID 651710;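 active means every replicate showing at least 50% inhibition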
PglD inh: PglD (C. jejuni) enzyme inhibition. purified PglD enzyme, DTNB colorimetric CoA detection. inhibition, % at 12.5 µM. 360,000 compounds, 0.098% hits. AID 602405; in the data active means inhibition above about 16%, passing the limit was not always enough
Casp6 inh: caspase-6 (human) enzyme inhibition. inhibition, % at 12.5 µM. P55212. purified caspase-6, Z-VEID-R110 cleavage fluorescence. 350,000 compounds, 0.53% hits;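 active means mean inhibition across replicates at least about 35%, with every replicate also reaching that limit, limit read from the data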;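 further: 0% = median of neutral control wells and 100% = no fluorescence left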
* marks the source's active call; other numbers are inactive results; nt = no result given.

SMILES	INS-1E GSIS act	RAD54 branch	Yeast UUG start	RAD52 anneal inh	PglD inh	Casp6 inh
COc1cc2cnc(Cl)nc2cc1OC	61*	-2	-10	nt	5	nt
NC(=O)c1cc(C(N)=O)nc(Cl)n1	13	nt	nt	-1	nt	2
C[C@@H]1CN([C@H](C)CO)S(=O)(=O)c2ccc(C#CC(C)(C)O)cc2O[C@@H]1CN(C)C(=O)CC1CC1	7	0	-5	12	1	-1
CNC[C@@H]1Oc2cc(C#Cc3cccc(OC)c3)ccc2S(=O)(=O)N([C@H](C)CO)C[C@H]1C	4	-3	13	-22	2	-3
Cc1noc(C)c1NC(=O)N(C)C[C@@H]1Oc2cc(C#CCC3CCCC3)ccc2S(=O)(=O)N([C@H](C)CO)C[C@@H]1C	-13	-4	nt	99*	-3	3
CNC[C@H]1Oc2cc(C#Cc3ccc(OC)cc3)ccc2S(=O)(=O)N([C@H](C)CO)C[C@@H]1C	-10	-4	0	56*	1	0
Cc1noc(C)c1NC(=O)N(C)C[C@H]1Oc2cc(C#CCC3CCCC3)ccc2S(=O)(=O)N([C@@H](C)CO)C[C@@H]1C	-4	-3	nt	5	1	0
C[C@H](CO)N1C[C@H](C)[C@@H](CN(C)C(=O)CN(C)C)Oc2cc(C#Cc3ccccc3)ccc2S1(=O)=O	3	6	8	41	-3	-1
C[C@H](CO)N1C[C@H](C)[C@@H](CN(C)C(=O)CC2CC2)Oc2cc(C#CC(C)(C)O)ccc2S1(=O)=O	44*	1	0	2	-1	0
C[C@H]1CN([C@@H](C)CO)S(=O)(=O)c2ccc(C#Cc3ccc(F)cc3)cc2O[C@H]1CN(C)C(=O)CN(C)C	35	4	22	71*	-2	0

Some of these compounds in order of length of the SMILES, largest number first.
SMILES	INS-1E GSIS act	RAD54 branch	Yeast UUG start	RAD52 anneal inh	PglD inh	Casp6 inh
C[C@H]1CN([C@@H](C)CO)S(=O)(=O)c2ccc(C#Cc3ccc(F)cc3)cc2O[C@H]1CN(C)C(=O)CN(C)C	35	4	22	71*	-2	0
C[C@H](CO)N1C[C@H](C)[C@@H](CN(C)C(=O)CC2CC2)Oc2cc(C#CC(C)(C)O)ccc2S1(=O)=O	44*	1	0	2	-1	0
CNC[C@H]1Oc2cc(C#Cc3ccc(OC)cc3)ccc2S(=O)(=O)N([C@H](C)CO)C[C@@H]1C	-10	-4	0	56*	1	0

Additional results.
SMILES	INS-1E GSIS act	RAD54 branch	Yeast UUG start	RAD52 anneal inh	PglD inh	Casp6 inh
Cc1noc(C)c1S(=O)(=O)Nc1ccc2c(c1)C(=O)N([C@@H](C)CO)C[C@@H](C)[C@@H](CN(C)C(=O)Nc1ccccc1)OCCCC[C@H](C)O2	-3	-7	-4	17	6	0
CC(C)CCN1CCN(Cc2ccoc2)CC1CCO (configuration not stated)	12	10	-27	-3	-10	7
CC(NS(=O)(=O)c1ccc2[nH]c(=O)c(=O)[nH]c2c1)C(=O)O (configuration not stated)	13	-11	-23	-5	-2	-2
C[C@@H]1CN([C@@H](C)CO)S(=O)(=O)c2ccc(C#Cc3ccc(F)cc3)cc2O[C@@H]1CN(C)C(=O)CN(C)C	34	12	22	50	3	1
C[C@H](CO)N1C[C@H](C)[C@@H](CN(C)C(=O)Cc2ccccn2)Oc2cc(C#C[C@@H](C)O)ccc2S1(=O)=O	41*	5	-17	-3	1	2
COc1ccccc1C#Cc1ccc2c(c1)O[C@@H](CN(C)C)[C@@H](C)CN([C@@H](C)CO)S2(=O)=O	9	10	1	23	1	48*
COc1ccccc1C#Cc1ccc2c(c1)O[C@H](CN(C)C)[C@H](C)CN([C@@H](C)CO)S2(=O)=O	7	2	2	21	3	3
C[C@@H]1CN([C@@H](C)CO)S(=O)(=O)c2ccc(C#Cc3cccc(F)c3)cc2O[C@H]1CN(C)C	9	-4	21	51*	4	2
C[C@@H]1CN([C@H](C)CO)S(=O)(=O)c2ccc(C#Cc3ccc(F)cc3)cc2O[C@H]1CN(C)C(=O)CN(C)C	60	14	30	61*	4	4
CC12CCC(C1)C(C)(C)C2NS(=O)(=O)c1ccc(F)cc1 (configuration not stated)	-33	-6	-15	7	-5	3

Complete entries as entered above. Screens in order: INS-1E GSIS act | RAD54 branch | Yeast UUG start | RAD52 anneal inh | PglD inh | Casp6 inh
C[C@@H]1CN([C@@H](C)CO)S(=O)(=O)c2ccc(C#Cc3cccc(F)c3)cc2O[C@H]1CN(C)C is listed as 9 | -4 | 21 | 51* | 4 | 2
COc1ccccc1C#Cc1ccc2c(c1)O[C@@H](CN(C)C)[C@@H](C)CN([C@@H](C)CO)S2(=O)=O is listed as 9 | 10 | 1 | 23 | 1 | 48*

(next part)
SMILES	INS-1E GSIS act	RAD54 branch	Yeast UUG start	RAD52 anneal inh	PglD inh	Casp6 inh
CC(C)(C)c1cc(NC(=O)COC(=O)c2ccccc2)n(-c2ccccc2)n1	nt	-4	-18	-16	3	-1
O=C(/C=C/c1ccc(Br)o1)OCc1nc2ccsc2c(=O)[nH]1	5	10	-9	-38	7	38*
O=C(Cc1ccccc1)N1CC[C@@H]2[C@H]1c1cc(-c3ccccc3F)ccc1N[C@@H]2CO	15	-10	-11	-205	4	-4
FC(F)(F)c1ccc(Cl)c(-n2c(-c3cc(-c4ccco4)[nH]n3)n[nH]c2=S)c1	-13	7	-16	-20	8	69*
FC(F)(F)c1ccc(Cl)c(-n2c(-c3ccco3)n[nH]c2=S)c1	9	10	-8	-12	-8	1
O=[N+]([O-])c1c(Nc2cccc(O)c2)cc(Cl)c2nonc12	97*	16	-31	2	-6	7
COc1ccc(CN(C)C[C@@H]2OCCCC[C@@H](C)Oc3ccc(NC(=O)Nc4ccc5c(c4)OCO5)cc3C(=O)N([C@H](C)CO)C[C@H]2C)cc1	-37	-4	1	55*	0	1
COc1ccc(CN(C)C[C@H]2OCCCC[C@H](C)Oc3ccc(NC(=O)Nc4ccc5c(c4)OCO5)cc3C(=O)N([C@H](C)CO)C[C@H]2C)cc1	-26	-6	30	8	3	3
C[C@@H]1CN([C@@H](C)CO)C(=O)c2cc(NC(=O)Nc3ccccc3)ccc2O[C@@H]1CN(C)Cc1ccc2c(c1)OCO2	-24	2	6	10	0	54*
COc1ccc(NC(=O)Nc2ccc3c(c2)C(=O)N([C@H](C)CO)C[C@H](C)[C@H](CN(C)Cc2ccccc2)OCCCC[C@H](C)O3)cc1	-17	8	24	54*	2	-1
COc1ccc(NC(=O)Nc2ccc3c(c2)C(=O)N([C@H](C)CO)C[C@@H](C)[C@H](CN(C)Cc2ccccc2)OCCCC[C@H](C)O3)cc1	5	7	9	59*	-2	1
C[C@@H]1CN([C@@H](C)CO)S(=O)(=O)c2ccc(-c3ccc(C(=O)N(C)C)cc3)cc2O[C@H]1CN(C)C(=O)Nc1ccccc1F	1	6	31	-10	5	-3
COc1ccc(S(=O)(=O)N2CCC(C(=O)NN3CCCCC3)CC2)cc1	14	3	-25	-3	2	1
CC(C)C(=O)Nc1ccc(C=C2C=Cc3ccccc32)cc1	nt	1	-8	-10	5	5
O=C(COC(=O)/C=C/c1cccc(Cl)c1Cl)Nc1ccc2[nH]c(=O)[nH]c2c1	-3	5	-20	-24	1	1
C[C@H](CO)N1C[C@H](C)[C@H](CN(C)Cc2ccc3c(c2)OCO3)OCCCC[C@H](C)Oc2ccc(NC(=O)Nc3ccccc3)cc2C1=O	-13	-4	7	56*	-2	1
CCCN(C)C[C@H]1OCCCC[C@@H](C)Oc2ccc(NC(=O)Nc3ccc(OC)cc3)cc2C(=O)N([C@@H](C)CO)C[C@H]1C	-4	-3	24	53*	1	0
Nc1nc(N)c(N=O)c(Nc2ccc(Cl)c(Cl)c2)n1	13	nt	nt	-8	nt	0
Nc1nc(N)c(N=O)c(Nc2cccc(Cl)c2)n1	41*	nt	nt	-21	nt	-1
